Results reported in patent publication US7422892B2, “Enzyme-based device for environmental monitoring” (dated 2008).

The chains behind the UniProt entries cited, without tags or fusion partners. Residues count along the entry.
UniProt P00784, 134-345 limits assumed: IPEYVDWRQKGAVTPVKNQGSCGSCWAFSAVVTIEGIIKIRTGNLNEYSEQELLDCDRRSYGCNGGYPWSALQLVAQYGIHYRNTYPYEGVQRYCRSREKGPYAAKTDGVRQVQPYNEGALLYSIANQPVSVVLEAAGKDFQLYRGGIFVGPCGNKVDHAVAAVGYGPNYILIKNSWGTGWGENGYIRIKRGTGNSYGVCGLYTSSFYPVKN

Key:
papain = papain (Carica papaya, UniProt P00784); test: Continuous monitoring for iodoacetamide in water (papain polymer, effluent pH/colour); conditions: 10 ppm in sample stream; papain polymer 100 units per gram; baseline below pH 4.9 (yellow); color change yellow to purple
[1] = biological target: organophosphorus hydrolase (Brevundimonas diminuta, UniProt P0A434); test: Continuous monitoring for paraoxon in water by catalytic hydrolysis (enzyme polymer, effluent pH); conditions: 0.5 mM in inlet water; 100 mg polymer, 50 mg organophosphorus hydrolase per gram; baseline pH 7.8

| Compound | effluent pH after inhibitor in the sample stream (papain) | effluent pH after addition of analyte to inlet water stream [1] |
| --- | --- | --- |
| NC(=O)CI | 7.0 | – |
| CCOP(=O)(OCC)Oc1ccc([N+](=O)[O-])cc1 | – | 5.8 |
